## Antibody variant affinities, Ab-14 heavy chain, assay 1

Values reported by Engelhart et al. 2022, doi:10.1038/s41597-022-01779-4 (FLAb copy).

The target is the same throughout: PDVDLGDISGINAS, from the HR2 region of SARS-CoV-2 spike.

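The starting antibody came from a phage panning campaign against this peptide. The library (AAYL49) carries one to three amino acid substitutions per variant, with no insertions or deletions. The assay is AlphaSeq: two haploid yeast populations carry antibody and antigen on their surface. The frequency of each diploid, read from paired DNA barcodes, reflects how well the two displayed proteins bind. The ratio of observed to expected reads was calibrated, replicate by replicate, on BCL2-family standards whose Kd was known from biolayer interferometry. Each pool was mated in three replicate cultures.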

Ab-14 is the parent antibody, in scFv form: VH, then a (GGGGS)3 linker, then VL. The light chain is unchanged in all variants.
VH: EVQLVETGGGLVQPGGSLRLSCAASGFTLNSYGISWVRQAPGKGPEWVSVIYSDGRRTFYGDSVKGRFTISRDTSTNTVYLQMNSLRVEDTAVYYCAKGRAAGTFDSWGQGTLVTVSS
VL: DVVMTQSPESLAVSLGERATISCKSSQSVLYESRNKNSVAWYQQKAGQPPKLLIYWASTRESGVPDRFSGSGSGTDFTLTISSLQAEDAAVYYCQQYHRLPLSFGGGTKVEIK

Changes read parent residue, position, new residue, counted from the first residue of the VH shown.
Values are log10 of the apparent Kd in nM; lower means stronger binding.
The mean shown is taken over the replicates in which the pair was detected.
"nd" means that the variant was in the library but no mating with the target was seen in any replicate; the authors take this as a sign of poor binding, and no number exists.
Entries are sorted by rising average, undetected variants last.
Background: pairings of library AAYL49 with three empty control strains gave a value in 15% of cases (median 4.06, 5th percentile 2.83). Values in that range, when seen in few replicates, are hard to tell from nonspecific mating.
In this assay the parent's reference entry averaged 0.65; its copy inside this library read 4.11 (one replicate of three).

With S31Q R56E G103V the result was 0.77 (3 of 3 replicates).
With T58V G61V R100E the result was 0.85 (3 of 3 replicates).
With G26I F59S S107E the result was 1.03 (3 of 3 replicates).
With I34L G61I the result was 1.61 (3 of 3 replicates).
With T28G D62Q the result was 1.82 (3 of 3 replicates).
With F27Y D62P A101L the result was 2.42 (3 of 3 replicates).
With R56T F105A the result was 2.46 (3 of 3 replicates).
With T28D D62E V64P the result was 3.12 (3 of 3 replicates).
With F27E S31V D62S the result was 3.29 (3 of 3 replicates).
With N30Y F59K R100E the result was 3.47 (2 of 3 replicates).
With F27L S35E K65T the result was 3.73 (1 of 3 replicates).
With D62A V64M A102G the result was 3.85 (2 of 3 replicates).
With G33M F105M S107D the result was 3.91 (1 of 3 replicates).
With Y32E S35A D62R the result was 4.06 (2 of 3 replicates).
With L29K Y60L G61H the result was 4.22 (2 of 3 replicates).
With G33H G61E D106C the result was 4.37 (2 of 3 replicates).
With L29P G33P G61A the result was 6.14 (2 of 3 replicates).
With G26L T58A Y60H the result was nd (0 of 3 replicates).
With N30W S35C the result was nd (0 of 3 replicates).
With K65E R100I F105L the result was nd (0 of 3 replicates).
With I51A G55V R56K the result was nd (0 of 3 replicates).
With G55C R100C T104R the result was nd (0 of 3 replicates).
With I51Y G61V S107L the result was nd (0 of 3 replicates).
With T28Y V50F V64K the result was nd (0 of 3 replicates).
With L29E A101F G103Y the result was nd (0 of 3 replicates).
With G55L T58M G61K the result was nd (0 of 3 replicates).
With N30C Y52I Y60H the result was nd (0 of 3 replicates).
With N30S S31C R100L the result was nd (0 of 3 replicates).
With T58N G61N D62K the result was nd (0 of 3 replicates).
With S31C G99D R100D the result was nd (0 of 3 replicates).
With S31C V50R G99A the result was nd (0 of 3 replicates).
With L29V S31R G99D the result was nd (0 of 3 replicates).
With N30W S53N T58A the result was nd (0 of 3 replicates).
With F27S D62V G103P the result was nd (0 of 3 replicates).
With I34V S35D R57Q the result was nd (0 of 3 replicates).
With G33T I34M G61H the result was nd (0 of 3 replicates).

2 of these entries, quoted again:

| changes | mean, log10 nM | detected |
|---|---|---|
| L29P G33P G61A | 6.14 | 2/3 |
| G33T I34M G61H | nd | 0/3 |